According to ChEMBL document CHEMBL5608242 (J Med Chem, 2024):

Tests used:
[1] = Toxicity in wild type Caenorhabditis elegans N2 at 0.1 to 100 uM in presence of Escherichia coli OP50 measured daily for 6 days by food clearance assay; conditions: dose 0.1-100 µM, time 6 day
[2] = system: SH-SY5Y; experiment: Cytotoxicity against human SH-SY5Y cells assessed as reduction in cell viability at high concentrations by MTT assay; format: toxicity, cell-based
[3] = Toxicity in wild type Caenorhabditis elegans N2 assessed as effect on worm growth at 0.1 to 100 uM in presence of Escherichia coli OP50 measured daily for 6 days by visual inspection; conditions: dose 0.1-100 µM, time 6 day
[4] = system: SH-SY5Y; experiment: Cytotoxicity against human SH-SY5Y cells assessed as reduction in cell viability at 0.5 uM by MTT assay; format: toxicity, cell-based
[5] = system: SH-SY5Y; experiment: Cytotoxicity against undifferentiated human SH-SY5Y cells; format: toxicity, cell-based

O=C(NO)c1ccc(S(=O)(=O)n2ccc3cc(OCCCN4CCCCC4)ccc32)cc1
Activity [1]: Non-Toxic | Activity [2]: Toxic | Activity [3]: Non-Toxic | Activity [4]: Non-Toxic

CCCNNC(=O)c1ccc(S(=O)(=O)n2ccc3cc(OCCCN4CCCCC4)ccc32)cc1
Activity [5]: Toxic

CCCNNC(=O)c1ccc(S(=O)(=O)n2ccc3cc(OC)ccc32)cc1
Activity [5]: Toxic
